Results on 11 molecules are retold here after patent publication US20260022143A1, “Cyclic Peptide Inhibitors of IL-23” (JANSSEN PHARMACEUTICA NV, priority 2022, published 2026).

This assay deals with T1, IL-23R (Homo sapiens, UniProt Q5VWK5).
T1 construct: host or cells: HEK293
T1 sequence (Q5VWK5 24-629): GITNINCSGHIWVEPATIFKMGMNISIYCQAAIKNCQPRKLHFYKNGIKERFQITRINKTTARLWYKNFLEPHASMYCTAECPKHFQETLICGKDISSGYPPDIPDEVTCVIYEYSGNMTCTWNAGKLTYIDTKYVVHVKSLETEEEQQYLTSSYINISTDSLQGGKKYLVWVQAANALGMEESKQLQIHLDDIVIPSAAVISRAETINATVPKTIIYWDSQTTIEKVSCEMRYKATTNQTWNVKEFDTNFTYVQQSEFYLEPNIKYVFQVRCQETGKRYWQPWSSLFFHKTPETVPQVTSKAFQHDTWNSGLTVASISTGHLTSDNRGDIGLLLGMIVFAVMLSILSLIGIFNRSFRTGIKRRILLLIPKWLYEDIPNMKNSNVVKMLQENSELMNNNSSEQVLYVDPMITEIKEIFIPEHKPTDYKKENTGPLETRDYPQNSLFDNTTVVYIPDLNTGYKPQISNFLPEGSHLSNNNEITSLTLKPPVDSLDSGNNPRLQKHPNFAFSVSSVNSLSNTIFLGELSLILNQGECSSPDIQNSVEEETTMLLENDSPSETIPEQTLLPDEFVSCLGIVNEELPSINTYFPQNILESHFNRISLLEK
In words: IL23R Reporter Assay. In kind it is cell-based. As to conditions: HEK293 cells containing IL-23R, IL-12RP1 and STAT-inducible firefly luciferase reporter; 10 ng/mL IL-23 (EC90); 5 h at 37° C.; read-out: IL23R Reporter Assay. (In general: In a reporter assay the amount or activity of a reporter protein is the signal.)
Take `CNCCOc1ccc(C[C@H](NC(=O)[C@H]2NC(=O)[C@H](CCCCNC(C)=O)NC(=O)[C@H](Cc3c[nH]c4c(C)cccc34)NC(=O)[C@H]([C@@H](C)O)NC(=O)[C@H](CC(N)=O)NC(=O)[C@@H](NC(C)=O)C(C)(C)SSC2(C)C)C(=O)N[C@@H](Cc2ccc3ccccc3c2)C(=O)NC2(C(=O)N[C@@H](CCCCNC(C)=O)C(=O)N[C@@H](CC(N)=O)C(=O)N[C@@H](Cc3cccnc3)C(=O)N(C)CC(N)=O)CCOCC2)cc1` [compound 47]: the IC50 is 3.9 nM.

In the case of `Cc1cccc2c(C[C@@H]3NC(=O)[C@H]([C@@H](C)O)NC(=O)[C@H](CC(N)=O)NC(=O)[C@@H](NC(=O)CCOCCOCC[N+](C)(C)C)C(C)(C)SSC(C)(C)[C@@H](C(=O)N[C@@H](Cc4ccc(OCCN)cc4)C(=O)N[C@@H](Cc4ccc5ccccc5c4)C(=O)NC4(C(=O)N[C@@H](CCC(=O)N(C)C)C(=O)N[C@@H](CC(N)=O)C(=O)N[C@@H](Cc5cccnc5)C(=O)N(C)CC(N)=O)CCOCC4)NC(=O)[C@H](CCC(=O)N(C)C)NC3=O)c[nH]c12` [compound 137, cPEG3aCO-Pen(3)-N-T-7MeW-Q(N(Me)2)-Pen(3)-AEF-2Nal-THP-Q(N(Me)2)-N-3Pya-Sar-CONH2], the IC50 was found to be 3.6 nM.

In the case of `CC(=O)NCCCC[C@H](NC(=O)C1(NC(=O)[C@H](Cc2ccc3ccccc3c2)NC(=O)[C@H](Cc2ccc(OCCN)cc2)NC(=O)[C@H]2NC(=O)[C@H](CCC(=O)N(C)C)NC(=O)[C@H](Cc3c[nH]c4c(C)cccc34)NC(=O)[C@H]([C@@H](C)O)NC(=O)[C@H](CC(N)=O)NC(=O)[C@@H](NC(=O)C(F)(F)F)C(C)(C)SSC2(C)C)CCOCC1)C(=O)N[C@@H](CC(N)=O)C(=O)N[C@@H](Cc1cccnc1)C(=O)N(C)CC(N)=O` [compound 61], the IC50 was determined as 3.3 nM.

Consider `CC(=O)N(C)CCCC[C@@H]1NC(=O)[C@H](Cc2c[nH]c3c(C)cccc23)NC(=O)[C@H]([C@@H](C)O)NC(=O)[C@H](CC(=O)N(C)C)NC(=O)[C@@H](NC(=O)CCOCCOCC[N+](C)(C)C)C(C)(C)SSC(C)(C)[C@@H](C(=O)N[C@@H](Cc2ccc(OCC3CCC([N+](C)(C)C)CC3)cc2)C(=O)N[C@@H](Cc2ccc3ccccc3c2)C(=O)NC2(C(=O)N[C@@H](CCCCN(C)C(C)=O)C(=O)N[C@@H](CC(N)=O)C(=O)N[C@@H](Cc3cccnc3)C(=O)N(C)CC(=O)N(C)C)CCOCC2)NC1=O` (single isomer, unassigned) [compound 210, cPEG3aCO-Pen(3)-N(N(Me)2)-T-7MeW-K(NMeAc)-Pen(3)-ACHMF-2Nal-THP-K(NMeAc)-N-3Pya-Sar-CON(Me)2], for which the IC50 turned out to be 2.2 nM.

As for `CC(=O)NCCCC[C@@H]1NC(=O)[C@H](Cc2c[nH]c3c(C)cccc23)NC(=O)[C@H]([C@@H](C)O)NC(=O)[C@H](CC(N)=O)NC(=O)[C@@H](NC(=O)[C@@H](CCCNC(=N)N)NC(=O)CCOCCOCC[N+](C)(C)C)C(C)(C)SSC(C)(C)[C@@H](C(=O)N[C@@H](Cc2ccc(OCCCCC[N+](C)(C)C)cc2)C(=O)N[C@@H](Cc2ccc3ccccc3c2)C(=O)NC2(C(=O)N[C@@H](CCC(=O)O)C(=O)N[C@@H](CC(N)=O)C(=O)N[C@@H](Cc3cncc(C)c3)C(=O)N(C)CC(N)=O)CCOCC2)NC1=O` [compound 542, cPEG3aCO-r-Pen(3)-N-T-7MeW-K(Ac)-Pen(3)-TMAPF-2Nal-THP-E-N-5MePyridinAla-Sar-CONH2], the IC50 is 1.9 nM.

Take `CC(=O)N[C@@H]1C(=O)N[C@@H](CC(=O)N(C)C)C(=O)N[C@@H]([C@@H](C)O)C(=O)N[C@@H](Cc2c[nH]c3c(C)cccc23)C(=O)N[C@@H](CCCCN(C)C(C)=O)C(=O)N[C@H](C(=O)N[C@@H](Cc2ccc(OCCCCC[N+](C)(C)C)cc2)C(=O)N[C@@H](Cc2ccc3ccccc3c2)C(=O)NC2(C(=O)N[C@@H](CCCCN(C)C(C)=O)C(=O)N[C@@H](CC(N)=O)C(=O)N[C@@H](Cc3cccnc3)C(=O)N(C)CC(=O)N(C)C)CCOCC2)C(C)(C)SSC1(C)C` [compound 190, MeCO-Pen(3)-N(N(Me)2)-T-7MeW-K(NMeAc)-Pen(3)-TMAPF-2Nal-THP-K(NMeAc)-N-3Pya-Sar-CON(Me)2]: the IC50 came to 2.2 nM. In the case of `CC(=O)N(C)CCCC[C@@H]1NC(=O)[C@H](Cc2c[nH]c3c(C)cccc23)NC(=O)[C@H]([C@@H](C)O)NC(=O)[C@H](CC(=O)N(C)C)NC(=O)[C@@H](NC(=O)CCOCCOCC[N+](C)(C)C)C(C)(C)SSC(C)(C)[C@@H](C(=O)N[C@@H](Cc2ccc(OCCN)cc2)C(=O)N[C@@H](Cc2ccc3ccccc3c2)C(=O)NC2(C(=O)N[C@@H](CCC(=O)N(C)C)C(=O)N[C@@H](CC(N)=O)C(=O)N[C@@H](Cc3cccnc3)C(=O)N(C)CC(N)=O)CCOCC2)NC1=O` [compound 150, cPEG3aCO-Pen(3)-N(N(Me)2)-T-7MeW-K(NMeAc)-Pen(3)-AEF-2Nal-THP-Q(N(Me)2)-N-3Pya-Sar-CONH2] it was 3.3 nM; in that of `CC(=O)NCCCC[C@H](NC(=O)C1(NC(=O)[C@H](Cc2ccc3ccccc3c2)NC(=O)[C@H](Cc2ccc(OCCN)cc2)NC(=O)[C@H]2NC(=O)[C@H](CCCCN(C)C(C)=O)NC(=O)[C@H](Cc3c[nH]c4c(C)cccc34)NC(=O)[C@H]([C@@H](C)O)NC(=O)[C@H](CC(N)=O)NC(=O)[C@@H](NC(C)=O)C(C)(C)SSC2(C)C)CCOCC1)C(=O)N[C@@H](CC(N)=O)C(=O)N[C@@H](Cc1cccnc1)C(=O)N(C)CC(N)=O` [SEQ ID 57], 2.9 nM. In the case of `CC(=O)NCCCC[C@@H]1NC(=O)[C@H](Cc2c[nH]c3c(C)cccc23)NC(=O)[C@H]([C@@H](C)O)NC(=O)[C@H](CC(N)=O)NC(=O)[C@@H](NC(C)=O)C(C)(C)SSC(C)(C)[C@@H](C(=O)N[C@@H](Cc2ccc(OCC[N+]3(C)CCOCC3)cc2)C(=O)N[C@@H](Cc2ccc3ccccc3c2)C(=O)NC2(C(=O)N[C@@H](CCCCNC(C)=O)C(=O)N[C@@H](CC(N)=O)C(=O)N[C@@H](Cc3cccnc3)C(=O)N(C)CC(N)=O)CCOCC2)NC1=O` [compound 562, MeCO-Pen(3)-N-T-7MeW-K(Ac)-Pen(3)-MMoEF-2Nal-THP-K(Ac)-N-3Pya-Sar-CONH2], the IC50 stood at 2.7 nM. Next, `COCCN1CC[N+]2(CC1)CCN(CCOc1ccc(C[C@H](NC(=O)[C@H]3NC(=O)[C@H](CCCCN(C)C(C)=O)NC(=O)[C@H](Cc4c[nH]c5c(C)cccc45)NC(=O)[C@H]([C@@H](C)O)NC(=O)[C@H](CC(=O)N(C)C)NC(=O)[C@@H](NC(=O)CCOCCOCC[N+](C)(C)C)C(C)(C)SSC3(C)C)C(=O)N[C@@H](Cc3ccc4ccccc4c3)C(=O)NC3(C(=O)N[C@@H](CCCCN(C)C(C)=O)C(=O)N[C@@H](CC(N)=O)C(=O)N[C@@H](Cc4cccnc4)C(=O)N(C)CC(=O)N(C)C)CCOCC3)cc1)CC2` [compound 262, cPEG3aCO-Pen(3)-N(N(Me)2)-T-7MeW-K(NMeAc)-Pen(3)-MTASF-2Nal-THP-K(NMeAc)-N-3Pya-Sar-CON(Me)2]: 3.6 nM; `CC(=O)NCCCC[C@@H]1NC(=O)[C@H](Cc2c[nH]c3c(C)cccc23)NC(=O)[C@H]([C@@H](C)O)NC(=O)[C@H](CC(N)=O)NC(=O)[C@@H](NC(C)=O)C(C)(C)SSC(C)(C)[C@@H](C(=O)N[C@@H](Cc2ccc(OCCOCCOCC[N+]3(C)CCN(C)CC3)cc2)C(=O)N[C@@H](Cc2ccc3ccccc3c2)C(=O)NC2(C(=O)N[C@@H](CCC(=O)O)C(=O)N[C@@H](CC(N)=O)C(=O)N[C@@H](Cc3cccnc3)C(=O)N(C)CC(N)=O)CCOCC2)NC1=O` [compound 433]: 3.6 nM.
